Results published in ChEMBL document CHEMBL2406999, “Vialinin A is a ubiquitin-specific peptidase inhibitor” (Bioorg Med Chem Lett, 2013).

Chains of the proteins cited; added tags and fusions are not shown. Lines headed by an entry give the natural chain unless they say otherwise; changes in a name come on top.
UniProt P54578: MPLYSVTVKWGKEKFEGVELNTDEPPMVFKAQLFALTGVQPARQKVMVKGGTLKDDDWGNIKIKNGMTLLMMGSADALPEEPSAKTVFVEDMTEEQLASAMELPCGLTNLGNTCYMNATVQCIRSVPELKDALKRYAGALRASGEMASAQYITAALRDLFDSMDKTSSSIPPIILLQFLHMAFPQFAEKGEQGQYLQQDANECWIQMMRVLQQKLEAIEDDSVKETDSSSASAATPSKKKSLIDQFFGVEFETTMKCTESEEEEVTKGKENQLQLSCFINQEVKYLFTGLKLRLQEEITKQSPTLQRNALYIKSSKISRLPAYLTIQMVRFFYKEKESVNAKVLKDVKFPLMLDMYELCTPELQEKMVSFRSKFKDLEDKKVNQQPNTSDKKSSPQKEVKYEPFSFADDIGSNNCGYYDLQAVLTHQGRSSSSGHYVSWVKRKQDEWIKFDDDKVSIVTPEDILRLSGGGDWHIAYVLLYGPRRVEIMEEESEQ

Molecular target: Ubiquitin carboxyl-terminal hydrolase 14 (Homo sapiens, UniProt P54578)

Structure (SMILES): Cc1cc(C(=O)CN2CCCC2)c(C)n1-c1ccc(F)cc1
- IC50: 4 µM
